Read-outs that look alike come from different tables or passages of the source.

This assay concerns SC epirubicin induced wounds in mice. As to conditions: Example 8.
Where [1] appears, read: epirubicin 4 mg/kg sc + ICRF-187 125 mg/kg IP.
The mark [2] stands for this setting: epirubicin 4 mg/kg sc + ICRF-187 250 mg/kg IP.
[3] abbreviates: epirubicin 4 mg/kg sc + ICRF-187 375 mg/kg IP.

With `C[C@@H](CN1CC(=O)NC(=O)C1)N1CC(=O)NC(=O)C1` [ICRF-187, (+)-1,2-bis(3,5-dioxopiperazinyl-1-yl)propane], under setting [1], the “Mean AUC” value was found to be 147 mm^2 × days, the “Mean DWw ± SEM” value turned out to be 18.5 ± 0.5 days and the “Mean TTWw ± SEM” value is reported as 5.5 ± 0.5 days. Under setting [2], the “Mean AUC” value is listed as 134 mm^2 × days, the “Mean DWw ± SEM” value is on record as 19.5 ± 0.5 days and the “Mean TTWw ± SEM” value was 5.0 days. Besides, under setting [3], the “Mean AUC” value was 101 mm^2 × days, the “Mean DWw ± SEM” value came to 18.0 days and the “Mean TTWw ± SEM” value is reported as 5.0 days. For the same compound, where the note is “epirubicin 4 mg/kg sc, ICRF-187 125, 250 or 375 mg/kg IP, AUC differences not statistically significant”, the “AUCs and ulcer rates, dose dependence” value is on record as “trend towards a dose-dependent beneficial effect”.

These data come from patent publication US6727253B2, “Treatment of accidental extravasation of anthracyclines” (Antianthra APS, priority 1999, dated 2004).
